In IntAct's records for PubMed 20511396:

B1: Transcription factor Jun (Homo sapiens), P05412 (parent)
chain: MTAKMETTFYDDALNASFLPSESGPYGYSNPKILKQSMTLNLADPVGSLKPHLRAKNSDLLTSPDVGLLKLASPELERLIIQSSNGHITTTPTPTQFLCPKNVTDEQEGFAEGFVRALAELHSQNTLPSVTSAAQPVNGAGMVAPAVASVAGGSGSGGFSASLHSEPPVYANLSNFNPGALSSGGGAPSYGAAGLAFPAQPQQQQQPPHHLPQQMPVQHPRLQALKEEPQTVPEMPGETPPLSPIDMESQERIKAERKRMRNRIAASKCRKRKLERIARLEEKVKTLKAQNSELASTANMLREQVAQLKQKVMNHVNSGCQLMLTQQLQTF

Variants of: B1
Conditions: with fos_human FOS

Row | Variant | effect of a mutation on the interaction
1 | K283E;K288E;R302E;Q304E | decreasing interaction strength
